Measurements taken from ChEMBL document CHEMBL1955733, “Optimization of 5-pyridazin-3-one phenoxypropylamines as potent, selective histamine H₃ receptor antagonists with potent cognition enhancing activity” (J Med Chem, 2012).

By UniProt entry, the sequences of proteins in these tests, tags left out. Where a name states a change or a piece, a line headed by the entry shows the natural chain unless it says otherwise.
UniProt Q9Y5N1: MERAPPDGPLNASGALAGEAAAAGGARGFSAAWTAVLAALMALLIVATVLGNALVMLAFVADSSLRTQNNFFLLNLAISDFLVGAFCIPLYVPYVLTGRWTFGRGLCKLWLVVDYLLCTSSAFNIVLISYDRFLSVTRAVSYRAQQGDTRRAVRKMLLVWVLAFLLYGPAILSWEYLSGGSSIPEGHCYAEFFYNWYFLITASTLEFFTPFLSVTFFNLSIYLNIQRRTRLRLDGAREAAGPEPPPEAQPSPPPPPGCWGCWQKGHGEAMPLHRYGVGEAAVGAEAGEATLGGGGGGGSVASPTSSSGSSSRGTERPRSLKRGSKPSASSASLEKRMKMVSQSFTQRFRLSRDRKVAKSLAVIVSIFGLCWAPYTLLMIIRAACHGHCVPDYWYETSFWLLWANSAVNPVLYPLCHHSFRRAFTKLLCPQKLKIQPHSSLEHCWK
UniProt Q9QYN8: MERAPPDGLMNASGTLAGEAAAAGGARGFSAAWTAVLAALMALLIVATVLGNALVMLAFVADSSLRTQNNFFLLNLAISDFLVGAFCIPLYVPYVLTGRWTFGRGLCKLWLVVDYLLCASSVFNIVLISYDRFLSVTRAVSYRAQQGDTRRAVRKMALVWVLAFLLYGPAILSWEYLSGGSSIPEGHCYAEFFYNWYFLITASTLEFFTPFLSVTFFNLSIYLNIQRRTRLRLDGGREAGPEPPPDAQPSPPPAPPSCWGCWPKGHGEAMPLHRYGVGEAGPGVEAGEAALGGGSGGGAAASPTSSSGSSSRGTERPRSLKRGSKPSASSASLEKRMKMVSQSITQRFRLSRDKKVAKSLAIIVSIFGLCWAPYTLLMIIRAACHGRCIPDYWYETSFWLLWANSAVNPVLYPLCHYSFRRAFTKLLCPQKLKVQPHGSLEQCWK

Tests used:
Histamine H3 receptor [1] = target: T1, Histamine H3 receptor (Homo sapiens, UniProt Q9Y5N1)
Histamine H3 receptor [2] = target: T2, Histamine H3 receptor (Rattus norvegicus, UniProt Q9QYN8)
Histamine H3 receptor [3] = target: T2, Histamine H3 receptor; experiment: Displacement of [3H]NAMH from rat cloned […] expressed in CHO cells; type: cell-based
Histamine H3 receptor [4] = target: T1, Histamine H3 receptor; experiment: Displacement of [3H]NAMH from human cloned […] expressed in CHO cells; type: cell-based

| EC50 (Histamine H3 receptor [1]) | EC50 (Histamine H3 receptor [2]) | Ki (Histamine H3 receptor [3]) | Ki (Histamine H3 receptor [4]) | SMILES |
| --- | --- | --- | --- | --- |
| 1.1 nM | 1.6 nM |  |  | C[C@@H]1CCCN1CCCOc1ccc(-c2cnn(-c3ccccn3)c(=O)c2)cc1 |
|  |  | 29 nM | 11 nM | C[C@H]1CCCN1CCCOc1ccc(-c2cnn(-c3ccccn3)c(=O)c2)cc1 |
